Values of other authors as cited in patent publication US20240277729A1, “METHODS OF TREATMENT AND PHARMACEUTICAL COMPOSITIONS USING AN SGLT-2 INHIBITOR AND A NEUROLEPTIC AGENT” (Boehringer Ingelheim International GmbH, priority 2011, published 2024).

Test system: SGLT
Settings: leading to glucosuria and a decrease in blood glucose concentration; cited from earlier work

Structure (SMILES): O=C(CCc1ccc(O)cc1)c1c(O)cc(O)cc1O[C@@H]1O[C@H](CO)[C@@H](O)[C@H](O)[C@H]1O [phlorizin]
- reuptake of glucose from the glomerular filtrate into the blood: partially inhibit the reuptake of glucose
